How the values were obtained:
[1] = biological target: T1, Thromboxane-A synthase (Homo sapiens) (UniProt P24557); experiment: Ex vivo thromboxane receptor (TXA2 synthase) inhibitory activity after 24 hr of oral dosing (10 mg/kg) in the dog; assay type: functional, organism-based; conditions: Canis lupus familiaris
T1 sequence (whole entry): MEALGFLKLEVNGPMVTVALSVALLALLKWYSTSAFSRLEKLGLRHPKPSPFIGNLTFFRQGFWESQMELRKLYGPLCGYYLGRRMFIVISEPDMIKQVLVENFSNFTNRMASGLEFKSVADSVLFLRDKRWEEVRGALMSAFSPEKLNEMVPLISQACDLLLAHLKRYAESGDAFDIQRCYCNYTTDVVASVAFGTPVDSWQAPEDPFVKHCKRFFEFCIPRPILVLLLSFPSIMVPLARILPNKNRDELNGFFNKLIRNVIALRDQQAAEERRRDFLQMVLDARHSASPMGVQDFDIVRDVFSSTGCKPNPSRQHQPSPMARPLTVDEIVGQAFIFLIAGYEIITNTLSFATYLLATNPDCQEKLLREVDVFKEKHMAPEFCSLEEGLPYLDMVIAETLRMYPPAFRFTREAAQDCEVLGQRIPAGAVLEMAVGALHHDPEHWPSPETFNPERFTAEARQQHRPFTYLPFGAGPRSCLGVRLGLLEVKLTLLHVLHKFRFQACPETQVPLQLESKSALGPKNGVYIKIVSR

[2] = biological target: T1, Thromboxane-A synthase (Homo sapiens); experiment: Ex vivo thromboxane receptor (TXA2 synthase) inhibitory activity after 24 hr of oral dosing (3 mg/kg) in the dog; assay type: functional, organism-based; conditions: Canis lupus familiaris

In the case of `Cc1ccc(OC(C)(C)C2OCC(C/C=C\CCC(=O)O)C(c3cccnc3)O2)c([N+](=O)[O-])c1` (stereo in doubt; 7x), the inhibition [1] is reported as 57.1% and the inhibition [2] is reported as 46%.

From ChEMBL document CHEMBL1128245, “Dual-acting thromboxane receptor antagonist/synthase inhibitors: synthesis and biological properties of [2-substituted-4-(3-pyridyl)-1,3-dioxan-5-yl] alkenoic acids” (J Med Chem, 1995)
